According to ChEMBL document CHEMBL1123833, “Novel inhibitors of rat lens aldose reductase: N-[[(substituted amino)phenyl]sulfonyl]glycines” (J Med Chem, 1987):

Molecular target: Aldo-keto reductase family 1 member B1 (Rattus norvegicus, UniProt P07943)
Assay: Concentration required to produce 50% inhibition of aldose reductase enzyme (the literature IC50 value for sorbinil is 0.07 uM)

IC50: 73 nM
SMILES: O=C1NC(=O)[C@@]2(CCOc3ccc(F)cc32)N1 [SORBINIL]
